Reference: PMC3875306 (Bioorganic & medicinal chemistry letters, 2013)

Sequences of proteins named here, by UniProt entry; tags and fusion partners are left off. Residues count along the entry.
UniProt P31424, 21-1203: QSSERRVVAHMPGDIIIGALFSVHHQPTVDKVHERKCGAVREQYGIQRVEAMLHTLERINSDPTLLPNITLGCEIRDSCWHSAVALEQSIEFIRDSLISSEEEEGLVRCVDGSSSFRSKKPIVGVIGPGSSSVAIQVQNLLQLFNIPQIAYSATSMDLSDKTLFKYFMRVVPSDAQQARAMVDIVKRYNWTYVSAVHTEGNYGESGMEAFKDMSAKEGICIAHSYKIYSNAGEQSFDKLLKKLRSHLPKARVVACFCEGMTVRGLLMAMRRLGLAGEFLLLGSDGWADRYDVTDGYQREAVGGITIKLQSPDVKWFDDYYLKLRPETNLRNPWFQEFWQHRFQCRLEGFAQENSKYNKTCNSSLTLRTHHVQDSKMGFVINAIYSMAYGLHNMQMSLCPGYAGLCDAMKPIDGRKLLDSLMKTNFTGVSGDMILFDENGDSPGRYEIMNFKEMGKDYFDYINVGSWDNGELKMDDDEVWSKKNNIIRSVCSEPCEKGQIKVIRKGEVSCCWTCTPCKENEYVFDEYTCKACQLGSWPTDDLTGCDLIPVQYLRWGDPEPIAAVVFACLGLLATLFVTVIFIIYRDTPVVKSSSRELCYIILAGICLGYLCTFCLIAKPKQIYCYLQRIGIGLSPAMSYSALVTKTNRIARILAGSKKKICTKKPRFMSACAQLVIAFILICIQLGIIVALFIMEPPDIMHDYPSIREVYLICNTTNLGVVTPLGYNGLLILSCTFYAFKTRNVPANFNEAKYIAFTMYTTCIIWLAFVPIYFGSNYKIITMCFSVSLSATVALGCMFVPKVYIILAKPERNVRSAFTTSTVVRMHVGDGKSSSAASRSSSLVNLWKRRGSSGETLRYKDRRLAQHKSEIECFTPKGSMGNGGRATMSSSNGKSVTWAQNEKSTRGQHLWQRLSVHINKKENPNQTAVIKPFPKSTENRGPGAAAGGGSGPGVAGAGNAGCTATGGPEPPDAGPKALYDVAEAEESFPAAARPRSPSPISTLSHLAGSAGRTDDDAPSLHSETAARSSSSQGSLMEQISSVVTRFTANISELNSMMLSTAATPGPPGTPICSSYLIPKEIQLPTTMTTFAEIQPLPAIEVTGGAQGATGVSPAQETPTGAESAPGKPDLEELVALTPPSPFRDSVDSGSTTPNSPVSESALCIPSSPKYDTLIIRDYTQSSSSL
UniProt Q13255, 19-1194: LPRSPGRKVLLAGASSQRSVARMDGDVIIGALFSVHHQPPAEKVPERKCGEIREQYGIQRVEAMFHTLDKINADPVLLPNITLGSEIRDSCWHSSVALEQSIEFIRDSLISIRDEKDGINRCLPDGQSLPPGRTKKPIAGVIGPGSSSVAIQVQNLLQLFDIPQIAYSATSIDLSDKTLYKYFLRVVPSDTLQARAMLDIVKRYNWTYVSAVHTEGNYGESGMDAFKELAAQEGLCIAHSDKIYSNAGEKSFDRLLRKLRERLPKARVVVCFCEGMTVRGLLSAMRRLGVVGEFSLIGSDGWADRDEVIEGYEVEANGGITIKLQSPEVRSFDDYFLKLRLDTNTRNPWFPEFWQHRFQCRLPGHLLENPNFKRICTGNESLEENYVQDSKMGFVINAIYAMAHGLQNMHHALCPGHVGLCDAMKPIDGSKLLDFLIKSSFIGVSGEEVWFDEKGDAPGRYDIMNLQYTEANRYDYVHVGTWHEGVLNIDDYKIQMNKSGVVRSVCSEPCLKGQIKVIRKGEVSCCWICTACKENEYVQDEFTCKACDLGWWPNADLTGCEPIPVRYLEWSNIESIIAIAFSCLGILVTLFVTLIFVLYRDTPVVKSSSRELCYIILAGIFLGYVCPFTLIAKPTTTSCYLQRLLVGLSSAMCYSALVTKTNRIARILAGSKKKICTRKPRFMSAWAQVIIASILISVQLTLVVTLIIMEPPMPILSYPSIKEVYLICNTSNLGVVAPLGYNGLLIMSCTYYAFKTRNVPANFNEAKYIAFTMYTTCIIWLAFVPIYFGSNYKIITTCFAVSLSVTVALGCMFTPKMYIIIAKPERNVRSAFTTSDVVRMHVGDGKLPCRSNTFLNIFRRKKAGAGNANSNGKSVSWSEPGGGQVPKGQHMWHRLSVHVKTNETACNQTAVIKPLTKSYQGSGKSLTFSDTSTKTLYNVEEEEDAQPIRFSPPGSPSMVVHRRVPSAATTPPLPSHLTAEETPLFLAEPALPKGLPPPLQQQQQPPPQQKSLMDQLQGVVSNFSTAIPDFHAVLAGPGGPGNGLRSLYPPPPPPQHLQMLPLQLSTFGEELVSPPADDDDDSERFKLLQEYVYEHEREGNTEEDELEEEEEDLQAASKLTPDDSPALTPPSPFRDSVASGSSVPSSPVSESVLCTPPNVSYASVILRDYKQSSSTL

What was measured:
[1] = target: rat mGlu5 (Rattus norvegicus, UniProt P31424)
[2] = target: human mGlu1 (Homo sapiens, UniProt Q13255); experiment: Calcium mobilization mGlu1 assay; settings: LLE = pIC50 - cLogP

SMILES | selectivity for mGlu1 versus mGlu5 [1] | LLE (ligand-lipophilicity efficiency) [2]
C[C@@H]1CN(C(=O)C23CC4CC(CC(C4)C2)C3)CCN1c1ccccn1 [Compound 17] | more than 60 fold | 2.29
C[C@@H]1CN(c2ccccn2)CCN1C(=O)C12CC3CC(CC(C3)C1)C2 [Compound 15] | more than 60 fold | 2.30
C[C@@H]1CN(c2cccnc2C#N)CCN1C(=O)C12CC3CC(CC(C3)C1)C2 [Compound 54] | – | 3.41
